Molecular target: Cdc8-coated F-actin (chicken | fission yeast (S. pombe)) (UniProt P68139)
Experiment: single-molecule TIRF microscopy (spot density); 1.5 μM Mg-ATP actin (Alexa 488-labeled), 500 nM Ain1 (0.5% TMR-labeled) alone or with 1 μM (dimer) unlabeled Cdc8; Ain1 events/μm/s on bundles from kymographs; room temperature

Substance: α-actinin Ain1, wild type (His-tagged) (from UniProt O13728 1-621) (natural protein)
- fold of Ain1 binding events against uncoated F-actin: 3 fold

Reference: publication PMC6557641
